Assay results reported in US20200147243A1, “LIGAND COMPOUND OF ALPHA7 NICOTINIC ACETYLCHOLINE RECEPTOR AND APPLICATION THEREOF” (BEIJING NORMAL UNIVERSITY, priority 2017, published 2020).

Sequences of proteins named here, by UniProt entry; tags and fusion partners are left off. A change or cut given only in a name is not applied to a line headed by its entry.
UniProt Q12809: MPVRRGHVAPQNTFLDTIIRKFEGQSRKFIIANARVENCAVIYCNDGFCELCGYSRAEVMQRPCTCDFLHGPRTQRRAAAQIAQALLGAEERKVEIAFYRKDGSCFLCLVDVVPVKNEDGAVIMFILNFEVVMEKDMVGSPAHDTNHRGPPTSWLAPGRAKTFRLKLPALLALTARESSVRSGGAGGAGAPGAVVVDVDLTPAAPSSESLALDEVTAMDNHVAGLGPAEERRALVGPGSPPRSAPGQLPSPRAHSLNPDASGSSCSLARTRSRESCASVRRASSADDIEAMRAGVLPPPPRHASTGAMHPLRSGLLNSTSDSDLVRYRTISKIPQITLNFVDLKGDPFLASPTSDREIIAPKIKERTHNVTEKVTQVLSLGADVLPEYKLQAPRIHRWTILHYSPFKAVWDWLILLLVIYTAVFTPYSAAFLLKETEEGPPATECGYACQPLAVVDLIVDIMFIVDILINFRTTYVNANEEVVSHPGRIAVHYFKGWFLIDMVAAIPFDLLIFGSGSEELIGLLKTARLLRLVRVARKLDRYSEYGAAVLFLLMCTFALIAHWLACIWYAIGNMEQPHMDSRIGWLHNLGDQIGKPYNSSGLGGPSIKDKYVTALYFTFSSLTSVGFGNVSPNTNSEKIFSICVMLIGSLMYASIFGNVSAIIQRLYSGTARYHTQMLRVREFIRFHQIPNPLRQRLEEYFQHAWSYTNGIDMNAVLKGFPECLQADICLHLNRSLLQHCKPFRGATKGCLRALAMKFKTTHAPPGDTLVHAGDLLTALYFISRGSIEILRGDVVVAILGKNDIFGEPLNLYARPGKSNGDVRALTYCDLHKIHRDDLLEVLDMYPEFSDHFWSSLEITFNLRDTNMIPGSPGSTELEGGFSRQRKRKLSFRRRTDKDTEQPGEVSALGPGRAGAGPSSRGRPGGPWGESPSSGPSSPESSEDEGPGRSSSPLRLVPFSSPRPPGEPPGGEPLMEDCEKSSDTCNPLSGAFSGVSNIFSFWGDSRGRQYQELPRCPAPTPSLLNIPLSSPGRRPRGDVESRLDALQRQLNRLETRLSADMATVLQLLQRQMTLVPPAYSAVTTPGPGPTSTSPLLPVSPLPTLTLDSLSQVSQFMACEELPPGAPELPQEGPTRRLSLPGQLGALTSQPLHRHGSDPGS

Target: hERG potassium channel (Homo sapiens, UniProt Q12809)
Assay: in vitro

COc1cc(N)c(Cl)cc1C(=O)NC1CCN(CCCOc2ccc(F)cc2)CC1OC (stereo not shown) [Cisapride, reference compound]
inhibition at 5 min, 1 µM: 99%
